Sequences of proteins named here, by UniProt entry; tags and fusion partners are left off. Residues count along the entry.
UniProt P23458, 849-1154: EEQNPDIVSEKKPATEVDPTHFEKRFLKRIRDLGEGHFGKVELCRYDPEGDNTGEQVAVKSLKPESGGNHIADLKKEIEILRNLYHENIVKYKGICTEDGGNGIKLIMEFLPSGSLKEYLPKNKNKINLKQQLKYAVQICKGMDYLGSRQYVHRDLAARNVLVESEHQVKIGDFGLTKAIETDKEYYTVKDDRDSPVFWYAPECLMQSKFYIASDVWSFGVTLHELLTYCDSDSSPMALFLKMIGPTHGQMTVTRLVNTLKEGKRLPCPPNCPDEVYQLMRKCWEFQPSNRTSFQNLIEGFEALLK

In patent US9034884B2, “Heterocyclic-substituted pyrrolopyridines and pyrrolopyrimidines as JAK inhibitors” (Incyte Corporation, priority 2010, dated 2015):

Biological target: T1, human JAK1 (a.a. 837-1142) catalytic domain (Homo sapiens, UniProt P23458)
T1 construct: human JAK1 (a.a. 837-1142); His tag (N); made in house; host or cells: insect cells (baculovirus)
Assay: In vitro JAK kinase assay (HTRF, phosphorylation of biotinylated peptide), JAK1
Assay type: biochemical
Details: Table A; ATP 1 mM
Method: Compounds herein were tested for inhibitory activity of JAK targets according to the following in vitro assay described in Park et al., Analytical Biochemistry 1999, 269, 94-104. The catalytic domains of human JAK1 (a.a. 837-1142) and JAK2 (a.a. 828-1132) with an N-terminal His tag were expressed using baculovirus in insect cells and purified. The catalytic activity of JAK1 and JAK2 was assayed by measuring the phosphorylation of a biotinylated peptide. The phosphorylated peptide was detected by homogenous time resolved fluorescence (HTRF). IC50s of compounds were measured for each kinase in the 40 microL reactions that contain the enzyme, ATP and 500 nM peptide in 50 mM Tris (pH 7.8) buffer with 100 mM NaCl, 5 mM DTT, and 0.1 mg/mL (0.01%) BSA. For the 1 mM IC50 measurements, ATP concentration in the reactions was 1 mM. Reactions were carried out at room temperature for 1 hour and then stopped with 20 μL 45 mM EDTA, 300 nM SA-APC, 6 nM Eu-Py20 in assay buffer (Perkin Elmer, Boston, Mass.). Binding to the Europium labeled antibody took place for 40 minutes and HTRF signal was measured on a Fusion plate reader (Perkin Elmer, Boston, Mass.). See Tables A and B for data related to compounds of the invention (at 1 mM). Data is indicated as ranges, wherein “+” is less than 5 nM; “++” is 5 nM to 25 nM; “+++” is greater than 25 nM to 100 nM; and “++++” is greater than 100 nM.

IC50: < 5 nM
SMILES: CN(C)Cc1cc(F)cc(OC2CCN(CC(CC#N)n3cc(-c4ncnc5[nH]ccc45)cn3)CC2)c1 (single isomer, unassigned) [Example 20 Enantiomer 2, 4-(4-{3-[(Dimethylamino)methyl]-5-fluorophenoxy}piperidin-1-yl)-3-[4-(7H-pyrrolo[2,3-d]pyrimidin-4-yl)-1H-pyrazol-1-yl]butanenitrile (chiral)]
